Laboratory results reported in PubChem BioAssay AID651965 (National Center for Advancing Translational Sciences (NCATS), 2013).
This is a selection; strong and weak results do not stand in their true shares. Records with an inconclusive call do not appear. Active and inactive are the calls of the source. The call rests on the fitted dose curve; in most records, active means well fitted falling curve with a large enough effect; inconclusive means small, poorly fitted or top-dose-only effect; inactive means no such curve, though single readings can be large or run the other way.

The chains behind the UniProt entries cited, without tags or fusion partners.
UniProt P80244, whole entry: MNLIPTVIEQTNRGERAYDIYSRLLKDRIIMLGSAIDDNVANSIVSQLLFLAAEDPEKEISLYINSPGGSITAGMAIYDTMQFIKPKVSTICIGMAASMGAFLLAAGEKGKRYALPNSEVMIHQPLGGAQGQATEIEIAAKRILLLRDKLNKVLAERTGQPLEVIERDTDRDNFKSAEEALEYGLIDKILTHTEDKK

target: ATP-dependent Clp protease proteolytic subunit (Bacillus subtilis (strain 168)) (UniProt P80244); test: qHTS Assay for Activators of ClpP; further: the source files actives as falling curves though it sought activators and does not explain the sign; nearly all actives have a fitted effect of over 65% in size; conditions: purified B. subtilis ClpP, FRET peptide cleavage, 20 min; at 57.5 µM (top of the series)

Row | SMILES | activity change, negative = active
1 | CC(C)(C)c1ccc(OP(C)(=O)Nc2ccc(SC(F)(F)F)cc2)cc1 (configuration not stated) | inactive: 2.54%
2 | Cc1cccc(C)c1OP(C)(N)=O (configuration not stated) | inactive: -2.02%
3 | ClCCN(CCCl)c1ccc(CC2C=CC=C2)cc1 | inactive: -0.261%
4 | O=[N+]([O-])c1cc([N+](=O)[O-])c(Nc2cccnc2)c([N+](=O)[O-])c1 | inactive: 1.64%
5 | C[As](=O)(O)c1cccc(C(=O)O)c1 | inactive: 1%
6 | O=[N+]([O-])c1ccc(-c2cc([N+](=O)[O-])c(O)c([N+](=O)[O-])c2)cc1 | inactive: -1.59%
7 | COc1cc(C(=O)NCC2(N3CCOCC3)CCCCC2)ccc1OCC(C)C | inactive: -3.1%
8 | CCN(CC)C(=S)SC(NC=O)C(Cl)(Cl)Cl (configuration not stated) | inactive: -14.9%
9 | O=C(OC1CN2CCC1CC2)c1cccc2[nH]cnc12 (configuration not stated) | inactive: -0.561%
10 | COc1ccc(OP(C)(=O)Nc2cccc(F)c2)cc1 (configuration not stated) | inactive: 0.828%
11 | O=[N+]([O-])c1cc([N+](=O)[O-])c(-c2ccn[nH]2)s1 | inactive: 0.924%
12 | CCOC(=O)c1ccc(NP(C)(=O)Oc2ccccc2)cc1 (configuration not stated) | inactive: -1.31%
13 | ClCCSc1nnc(-c2cccnc2)o1 | inactive: -2.56%
14 | O=Cc1ccc(NCCCl)cc1 | inactive: -6.82%
15 | COc1ccccc1OP(C)(=O)Nc1ccc(C)cc1 (configuration not stated) | inactive: -1.51%
16 | COC(=O)C1(C)COP(=O)(N2CCCCCC2)OC1 (configuration not stated) | inactive: 1.17%
17 | Cc1ccc(NP(C)(=O)Oc2ccccc2)c(C)c1 (configuration not stated) | inactive: 1.53%
18 | O=P1(N(CCCl)CCCl)OCCCN1CCCl (configuration not stated) | inactive: -1.33%
19 | Cc1c2c(nc3ccccc13)SC(C(Cl)Cl)C2 (configuration not stated) | inactive: -4.04%
20 | O=C(OC1CN2CCC1CC2)C12CC3CC(CC(C3)C1)C2 (configuration not stated) | inactive: -1.71%
21 | CCN(CC)CCCOC(=O)C(O)(c1ccccc1)c1ccccc1 | inactive: -0.43%
22 | O=[N+]([O-])c1cc(Oc2ccc([N+](=O)[O-])cc2C(F)(F)F)cc([N+](=O)[O-])c1 | inactive: 0.467%
23 | COc1ccc(N/C(=N/P(=O)(N2CCOCC2)N2CCOCC2)N2CCOCC2)cc1 | inactive: 3.05%
24 | COc1ccccc1-c1ccccn1.O=[N+]([O-])c1cc([N+](=O)[O-])c(O)c([N+](=O)[O-])c1 | inactive: -6%
25 | O=C(COc1ccccc1)OC1CN2CCC1CC2 (configuration not stated) | inactive: 0.625%
26 | CP(=O)(NC(=O)Nc1ccccc1)Oc1ccccc1 (configuration not stated) | inactive: -1.68%

Row | SMILES | activity change, negative = active
27 | CCc1ccc(OP(C)(=O)N2CCN(c3ccc([N+](=O)[O-])cc3)CC2)cc1 (configuration not stated) | inactive: 1.83%
28 | O=C(Nc1ccncc1[N+](=O)[O-])c1ccc([N+](=O)[O-])cc1[N+](=O)[O-] | inactive: 0.173%
29 | Cc1cc(C)cc(OP(C)(=O)Nc2ccc(SC(F)(F)F)cc2)c1 (configuration not stated) | inactive: -2.34%
30 | COP1(=S)c2c(C)nn(CCC#N)c2N=C(c2ccc(F)cc2)N1C (configuration not stated) | inactive: -1.13%
31 | Cc1cccc(C)c1OP(C)(=O)Nc1ccc(SC(F)(F)F)cc1 (configuration not stated) | inactive: -46.4%
32 | CP(=O)(Nc1ccc(SC(F)(F)F)cc1)Oc1ccc(Cl)cc1 (configuration not stated) | inactive: -3.74%
33 | COC(=O)C1(C)COP(=O)(N2CCCC2)OC1 (configuration not stated) | inactive: -14.6%
34 | CCC(C)N(CC(C)C)C(=S)SC(NC(C)=O)C(Cl)(Cl)Cl (configuration not stated) | inactive: 0.534%
35 | CP(=O)(Nc1ccccn1)Oc1ccc(Cl)cc1 (configuration not stated) | inactive: -14.8%
36 | O=C(OC1CN2CCC1CC2)c1cccc([N+](=O)[O-])c1 (configuration not stated) | inactive: -0.164%
37 | CCOP(C)(=S)SCC(=O)NC(C)C(=O)O (configuration not stated) | inactive: -0.464%
38 | CSc1ccc(Nc2c([N+](=O)[O-])cc([N+](=O)[O-])cc2[N+](=O)[O-])cc1 | inactive: -2.23%
39 | CCOC(=O)c1ccc(NP(C)(=O)Oc2ccc(OC)cc2)cc1 (configuration not stated) | inactive: 1.55%
40 | COP(=O)(OC)N1CC1c1ccccc1 (configuration not stated) | inactive: 1.91%
41 | CCCCOc1ccc(C(=O)NCC2(N3CCCCC3)CCCCC2)cc1OC | inactive: -0.191%
42 | Cc1cc(SC(NC(=O)c2ccccc2)C(Cl)(Cl)Cl)nc(C(C)C)n1 (configuration not stated) | inactive: -2.15%
43 | O=C(O)C(=O)c1ccc(N(CCCl)CCCl)cc1.c1ccc(Nc2ccccc2)cc1 | inactive: -2.38%
44 | CCOC(=O)Nc1ccc([As](=O)(O)O)c(O)c1 | inactive: -0.459%
45 | CC1CCNP(=O)(N(CCCl)CCCl)O1 (configuration not stated) | inactive: -0.715%
46 | CP(=O)(Nc1ccccc1Br)Oc1ccccc1 (configuration not stated) | inactive: -0.643%
47 | O=[N+]([O-])c1ccc(Nc2ccc(Oc3ccc([N+](=O)[O-])cc3[N+](=O)[O-])cc2)c([N+](=O)[O-])c1 | inactive: -5.09%
48 | CP(=S)(Nn1cnnc1)Oc1ccccc1 (configuration not stated) | inactive: -0.762%
49 | CN(C)C1(CNC(=O)c2ccc(S(C)(=O)=O)cc2)CCCCC1 | inactive: -3.03%
50 | CC1=C2N=C(C=C3N=C(C(C)=C4[N-][C@@](C)([C@@H]5N=C1[C@](C)(CCC(=O)NC[C@@H](C)OP(=O)([O-])O[C@H]1[C@@H](O)[C@@H](n6cnc7cc(C)c(C)cc76)O[C@@H]1CO)[C@H]5CC(N)=O)[C@@](C)(CC(N)=O)[C@@H]4CCC(N)=O)[C@@](C)(CC(N)=O)[C@@H]3CCC(N)=O)C(C)(C)[C@@H]2CCC(N)=O.[C-]#N.[Co+3] | inactive: -2.66%
51 | O=[N+]([O-])c1cc([N+](=O)[O-])c(Nc2nnnn2CCO)c([N+](=O)[O-])c1 | inactive: -1.67%
52 | O=C(/C=C/c1ccccc1)OC1CN2CCC1CC2 (configuration not stated) | inactive: -0.814%
